This note sets out measurements from ChEMBL document CHEMBL1221254, “Succinic acid amides as P2-P3 replacements for inhibitors of interleukin-1beta converting enzyme (ICE or caspase 1)” (Bioorg Med Chem Lett, 2010).

This assay can be described thus: Selectivity ratio of Ki for mouse ICE to Ki for human ICE.
As to `CC(C)[C@H](CC(=O)NCCc1cccc2ncccc12)C(=O)N[C@H](C=O)CC(=O)O`, the Ratio Ki was 8. Regarding `Cc1[nH]c2ccccc2c1CCNC(=O)C[C@H](C(=O)N[C@H](C=O)CC(=O)O)C(C)C`, the Ratio Ki was determined as 10.3. On to `O=C[C@H](CC(=O)O)NC(=O)[C@@H]1CCCN2C(=O)CC[C@H](NC(=O)c3nccc4ccccc34)C(=O)N12` [VRT-18858], for which the Ratio Ki amounted to 11.7.
